Reference: patent US10941379B2, “Microbial system for biosynthesis of natural and engineered products coupled to in situ extraction in supercritical CO2” (Massachusetts Institute of Technology, priority 2016, dated 2021)

Test system: B. megaterium SR7
Assay: Biolog GenIII sole carbon source growth
Assay type: cell-based, Bacillus megaterium
Settings: Table 11
Experimental: Plates were incubated at 37° C. on a plate shaker at 200 rpm and assayed for growth using NADH-dependent colorimetric changes measured by OD490 on a microplate reader (BioTek Synergy 2; BioTek; Winooski, Vt.).

O=C(O)CCC(=O)C(=O)O [α-Keto-Glutaric Acid]
+: Growth in carbon source Biolog plate, +Metals (trace metals-amended plate) | Growth in carbon source Biolog plate, I (unamended plate trial I) | Growth in carbon source Biolog plate, II (unamended plate trial II)
